Values of other authors in patent US11498903B2, “2-(1,1′-biphenyl)-1H-benzodimidazole derivatives and related compounds as apelin and APJ agonists for treating cardiovascular diseases” (BRISTOL-MYERS SQUIBB COMPANY, priority 2017, dated 2022).

Conditions: estimated; Japp et al. 2010; cited from earlier work

apelin
half-life in circulation: less than 5 minutes
